This is an account of results in patent publication US9598418B2, “Substituted phthalazin-1 (2H)-one derivatives as selective inhibitors of poly (ADP-ribose) polymerase-1” (CADILA HEALTHCARE LIMITED, priority 2012, dated 2017).

Amino acid sequences for entries named in this document (tags omitted).
UniProt P09874, whole entry: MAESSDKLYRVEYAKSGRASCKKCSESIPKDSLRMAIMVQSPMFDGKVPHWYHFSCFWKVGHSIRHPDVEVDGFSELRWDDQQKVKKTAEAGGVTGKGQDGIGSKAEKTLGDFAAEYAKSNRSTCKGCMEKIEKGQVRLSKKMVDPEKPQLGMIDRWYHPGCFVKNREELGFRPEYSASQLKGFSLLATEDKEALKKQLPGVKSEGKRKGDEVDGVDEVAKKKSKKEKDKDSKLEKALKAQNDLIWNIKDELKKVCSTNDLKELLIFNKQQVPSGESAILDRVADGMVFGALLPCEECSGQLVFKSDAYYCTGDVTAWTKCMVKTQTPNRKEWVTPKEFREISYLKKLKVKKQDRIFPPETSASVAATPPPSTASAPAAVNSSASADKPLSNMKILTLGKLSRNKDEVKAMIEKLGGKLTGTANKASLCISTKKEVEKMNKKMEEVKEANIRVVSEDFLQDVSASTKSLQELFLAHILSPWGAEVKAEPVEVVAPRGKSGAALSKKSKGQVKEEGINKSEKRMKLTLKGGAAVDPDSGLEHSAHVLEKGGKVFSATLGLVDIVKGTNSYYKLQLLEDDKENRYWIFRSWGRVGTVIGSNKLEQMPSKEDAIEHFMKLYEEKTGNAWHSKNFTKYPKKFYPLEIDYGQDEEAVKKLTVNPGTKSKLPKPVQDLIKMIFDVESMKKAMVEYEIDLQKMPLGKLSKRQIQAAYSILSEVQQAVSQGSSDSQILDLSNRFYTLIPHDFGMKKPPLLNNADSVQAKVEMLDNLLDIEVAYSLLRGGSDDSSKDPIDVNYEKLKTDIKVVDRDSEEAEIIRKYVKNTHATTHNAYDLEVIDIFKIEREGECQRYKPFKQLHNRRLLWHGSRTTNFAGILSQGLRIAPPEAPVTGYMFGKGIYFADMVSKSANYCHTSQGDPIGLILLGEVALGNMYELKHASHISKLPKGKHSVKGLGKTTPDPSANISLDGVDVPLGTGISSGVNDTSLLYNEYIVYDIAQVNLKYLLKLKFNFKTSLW

As a reminder, the IC50 is the concentration needed to halve the response being measured.

For this experiment, the target named is PARP-1 (Homo sapiens, UniProt P09874). Nature of the experiment: PARP-1 inhibitory activity, HT universal colorimetric PARP assay kit (Trevigen). The following applies: read-out: PARP-1 activity in vitro IC50; estimation as calculated from a 4 point dose response curve.

For `O=C(c1cc(Cc2n[nH]c(=O)c3ccccc23)ccc1F)N1C[C@H]2CN3CCCC3[C@H]2C1` (some centres unmarked), the IC50 is 11.7 nM.

Regarding `CS(=O)(=O)n1ncc2c1CN(C(=O)c1cc(Cc3n[nH]c(=O)c4ccccc34)ccc1F)C2`, the half-inhibitory concentration (IC50) is 30.3 nM.
